Drawing on ChEMBL document CHEMBL2074026, “Novel experimental parameters to quantify the modulation of absorptive and secretory transport of compounds by P-glycoprotein in cell culture models of intestinal epithelium” (Pharm Res, 2003), this text covers Activity for 1 compound.

By UniProt entry, the sequences of proteins in these tests, tags left out.
UniProt P08183, whole entry: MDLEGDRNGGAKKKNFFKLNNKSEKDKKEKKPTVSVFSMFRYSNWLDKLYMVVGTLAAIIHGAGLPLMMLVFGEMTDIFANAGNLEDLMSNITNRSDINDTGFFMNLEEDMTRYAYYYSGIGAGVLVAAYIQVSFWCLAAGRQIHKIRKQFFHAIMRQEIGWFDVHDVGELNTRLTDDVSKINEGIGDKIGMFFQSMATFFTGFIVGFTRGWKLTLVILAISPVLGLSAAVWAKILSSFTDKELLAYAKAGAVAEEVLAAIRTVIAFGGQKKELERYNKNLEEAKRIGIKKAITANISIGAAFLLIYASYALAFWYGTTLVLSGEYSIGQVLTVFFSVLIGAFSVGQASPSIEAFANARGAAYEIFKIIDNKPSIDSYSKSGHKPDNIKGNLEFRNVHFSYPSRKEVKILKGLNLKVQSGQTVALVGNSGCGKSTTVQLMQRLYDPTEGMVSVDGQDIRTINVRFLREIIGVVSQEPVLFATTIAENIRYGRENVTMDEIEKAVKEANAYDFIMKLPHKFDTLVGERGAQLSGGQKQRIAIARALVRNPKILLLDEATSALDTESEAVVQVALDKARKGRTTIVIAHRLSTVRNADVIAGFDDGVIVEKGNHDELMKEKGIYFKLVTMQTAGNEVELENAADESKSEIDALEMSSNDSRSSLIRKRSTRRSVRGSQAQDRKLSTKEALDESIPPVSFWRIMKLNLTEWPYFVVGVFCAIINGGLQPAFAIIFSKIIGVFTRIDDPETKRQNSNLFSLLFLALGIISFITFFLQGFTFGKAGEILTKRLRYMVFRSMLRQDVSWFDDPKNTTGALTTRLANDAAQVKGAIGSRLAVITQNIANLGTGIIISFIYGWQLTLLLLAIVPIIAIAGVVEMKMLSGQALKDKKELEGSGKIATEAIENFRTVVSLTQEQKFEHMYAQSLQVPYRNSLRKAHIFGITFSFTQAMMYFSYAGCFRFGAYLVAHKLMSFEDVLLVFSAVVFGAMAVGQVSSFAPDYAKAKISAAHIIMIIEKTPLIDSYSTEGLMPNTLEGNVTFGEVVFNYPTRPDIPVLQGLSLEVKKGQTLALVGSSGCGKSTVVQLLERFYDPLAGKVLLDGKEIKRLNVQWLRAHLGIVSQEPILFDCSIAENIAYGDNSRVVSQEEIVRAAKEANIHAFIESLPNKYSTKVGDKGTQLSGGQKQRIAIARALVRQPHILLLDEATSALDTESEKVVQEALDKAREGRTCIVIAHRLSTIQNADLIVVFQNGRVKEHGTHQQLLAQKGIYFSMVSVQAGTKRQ

This data set has as its target ATP-dependent translocase ABCB1 (Homo sapiens, UniProt P08183). Description: TP_TRANSPORTER: transepithelial transport of Morphine at a concentration of 1 uM in MDR1-expressing MDCK cells. It counts as functional, cell-based. To be noted: dog.

In the case of `CN1CC[C@]23c4c5ccc(O)c4O[C@H]2[C@@H](O)C=C[C@H]3[C@H]1C5` [MORPHINE], the Activity result was “substrate [+]”.
